Values quoted from earlier work, collected in patent publication US8519145B2, “Aryl compounds as PPAR ligands and their use” (Seoul National University Industry Foundation, priority 2006, dated 2013).

Sequences of proteins named here, by UniProt entry; tags and fusion partners are left off. A change or cut given only in a name is not applied to a line headed by its entry.
UniProt Q03181, whole entry: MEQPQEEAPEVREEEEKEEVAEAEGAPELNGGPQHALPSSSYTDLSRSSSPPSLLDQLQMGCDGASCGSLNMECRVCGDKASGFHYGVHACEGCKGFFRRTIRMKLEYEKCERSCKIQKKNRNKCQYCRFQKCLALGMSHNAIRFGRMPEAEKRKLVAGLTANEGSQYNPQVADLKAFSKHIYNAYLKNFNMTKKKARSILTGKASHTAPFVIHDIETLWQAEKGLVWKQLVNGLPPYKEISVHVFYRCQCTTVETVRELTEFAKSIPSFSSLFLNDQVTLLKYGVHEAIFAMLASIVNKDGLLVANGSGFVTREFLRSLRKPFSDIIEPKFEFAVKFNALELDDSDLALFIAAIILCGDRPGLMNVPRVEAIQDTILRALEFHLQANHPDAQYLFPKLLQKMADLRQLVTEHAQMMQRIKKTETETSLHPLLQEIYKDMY

Target: hPPARδ (Homo sapiens, UniProt Q03181)
Conditions: literature; cited from earlier work

CCCc1c(OCCCSc2ccc(CC(=O)O)cc2Cl)ccc2c(C(F)(F)F)noc12
selectivity to other hPPAR subtypes: barely have selectivity
